The assay addresses hROMK (hKir1.1) (Homo sapiens (Human), UniProt P48048). In words: Thallium Flux Assay (ROMK channel functional thallium flux, FLIPR-Tetra). To be noted: HEK293 cells stably expressing hROMK (hKir1.1). The class given is cell-based. On the procedure:
Cell Culture Conditions—HEK293 cells stably expressing hROMK (hKir1.1) were grown at 37° C. in a 10% CO2 humidified incubator in complete growth media: Dulbecco's Modified Eagle Medium supplemented with non-essential amino acids, Penicillin/Streptomycin/Glutamine, G418 and FBS. At >80% confluency, aspirate the media from the flask and rinse with 10 mL Calcium/Magnesium-free PBS. […] To dislodge the cell, gently bang the side of the flask with your hand. Triturate the cells completely and then transfer the cells to 25 mL complete media. Centrifuge at 1,500 rpm for 6 min followed by resuspension in complete growth media and determine cell concentration. […] Under ideal growth conditions and appropriate tissue culture practices, this cell line is stable for 40-45 passages.
FluxOR Kit Components (Invitrogen F10017) • FluxOR™ Reagent (Component A) • FluxOR™ Assay Buffer (Component B)—10× Concentrate • PowerLoad™ Concentrate (Component C)—100× Concentrate • Probenecid (Component D)—Lyophilized sample is kept at −20° C. Water soluble, 100× after solubilization in 1 mL water. […]
Data Calculation—The fluorescence intensity of wells containing 3 μM of a standard control ROMK inhibitor of the present invention is used to define the ROMK-sensitive component of thallium flux. Fluorescence in the presence of test compounds is normalized to control values to provide % fluorescence change.

By UniProt entry, the sequences of proteins in these tests, tags left out. Where a name states a change or a piece, a line headed by the entry shows the natural chain unless it says otherwise.
UniProt P48048: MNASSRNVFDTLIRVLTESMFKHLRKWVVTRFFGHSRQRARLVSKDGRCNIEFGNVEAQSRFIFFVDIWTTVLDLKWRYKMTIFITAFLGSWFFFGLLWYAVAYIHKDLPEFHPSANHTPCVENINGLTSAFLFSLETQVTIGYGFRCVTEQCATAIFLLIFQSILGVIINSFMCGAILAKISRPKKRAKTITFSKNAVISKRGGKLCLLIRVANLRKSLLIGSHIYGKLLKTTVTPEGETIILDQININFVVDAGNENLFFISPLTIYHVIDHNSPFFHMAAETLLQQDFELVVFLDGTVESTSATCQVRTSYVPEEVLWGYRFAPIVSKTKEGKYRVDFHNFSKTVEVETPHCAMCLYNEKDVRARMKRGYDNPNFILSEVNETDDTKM

As to `C[C@@H]1Cc2cc([C@@H]3CN4CCN(C(=O)C5CCc6cc(-n7cnnn7)ccc65)C[C@H]4CO3)ccc2C(=O)O1` (single isomer, unassigned) [Example 85], the IC50 (in general, the concentration at which inhibition is half-maximal) amounted to 0.15 µM.
Next, `C[C@@H]1Cc2cc([C@@H]3CN4CCN(C(=O)C5CCc6cc(-n7cnnn7)ccc65)C[C@H]4CO3)ccc2C(=O)O1` (single isomer, unassigned) [Example 84]: 0.4 µM.

Source of the values: patent US9573961B2, “Inhibitors of the renal outer medullary potassium channel” (Merck Sharp & Dohme Corp., priority 2012, dated 2017).
